In this test the target is human nascent polypeptide-associated complex (NAC), unlabeled (human, UniProt Q13765 1-215; P20290-2 1-162). Put plainly: other fluorescence titration; equilibrium FRET titrations of SRP^TMR into 1 nM RNC^BDP with unlabeled NAC premixed (0-400 nM for RNC(ss), 0-62.5 nM for RNC(ssmt)); global fit to the anti-cooperative co-binding model, Eq. (8); 25 °C, Assay buffer with 1 mg/mL BSA. The conditions noted are these: both partners purified.

This note sets out measurements from paper PMC7673040 (Nature Communications, 2020).

B1: ribosome-nascent chain complex bearing the first ~90 amino acids of pPL(ss), labelled with BODIPY-FL on the nascent chain (complex)
chain: MDSKGSSQKGSKLALALLLLLLALALCQGVVSTPVCPNGPGNCQVSLRDLFDRAVMVSHYIHDLSSEMFNEFDKRYAQGKGFITMALNSCHTV
modifications: axial-trans-cyclooct-2-en-L-Lysine (TCOK) at an amber codon one residue upstream of the signal sequence, labelled with tetrazine-conjugated BODIPY-FL (BDP)
Turning to B1, the dissociation constant (Kd) (as a rule, the constant that tells how readily two partners part at equilibrium) was 1.4 nM.

B2: ribosome-nascent chain complex bearing the first ~90 amino acids of pPL(ssmt), labelled with BODIPY-FL on the nascent chain (complex)
chain: MDSKGSSQKGSKLLLRRVVSNLLLCQGVVSTPVCPNGPGNCQVSLRDLFDRAVMVSHYIHDLSSEMFNEFDKRYAQGKGFITMALNSCHTV
modifications: axial-trans-cyclooct-2-en-L-Lysine (TCOK) at an amber codon one residue upstream of the signal sequence, labelled with tetrazine-conjugated BODIPY-FL (BDP)
In the case of B2, the affinity, expressed as Kd, was 1.2 nM.
